Here are results for one substance from patent US20220185900A1.

In this test the target is human RET on cells (MCF7/SRE-Luc; HEK293/hGFRα3/hRET/SRE-Luc; HEK293/hGFRα1/hRET/SRE-Luc) (human) (UniProt P07949). As to the kind of experiment: cell-based or functional assay.

In the case of H4H8048P (antibody), the 293/hGFRα3/hRET SRE-luc % Blocking is 99%; the 293/hGFRα3/hRET/SRE-Luc IC50 amounted to 8.3 nM; the Internalization (% H4H8087P), HEK293/hGFRa1/hRET/SRE-Luc cells, 37 C came out at 35.4%; the MCF7/SRE-Luc % Activation stood at 0%. Moreover, the MCF7/SRE-Luc Avg % Blocking came out at 82% and the MCF7/SRE-luc Avg. IC50 is above 100 nM.
